Measured values taken from ChEMBL document CHEMBL1126449.

Target: T1, Acetylcholinesterase (Mus musculus, UniProt P21836)
T1 sequence (P21836 whole entry): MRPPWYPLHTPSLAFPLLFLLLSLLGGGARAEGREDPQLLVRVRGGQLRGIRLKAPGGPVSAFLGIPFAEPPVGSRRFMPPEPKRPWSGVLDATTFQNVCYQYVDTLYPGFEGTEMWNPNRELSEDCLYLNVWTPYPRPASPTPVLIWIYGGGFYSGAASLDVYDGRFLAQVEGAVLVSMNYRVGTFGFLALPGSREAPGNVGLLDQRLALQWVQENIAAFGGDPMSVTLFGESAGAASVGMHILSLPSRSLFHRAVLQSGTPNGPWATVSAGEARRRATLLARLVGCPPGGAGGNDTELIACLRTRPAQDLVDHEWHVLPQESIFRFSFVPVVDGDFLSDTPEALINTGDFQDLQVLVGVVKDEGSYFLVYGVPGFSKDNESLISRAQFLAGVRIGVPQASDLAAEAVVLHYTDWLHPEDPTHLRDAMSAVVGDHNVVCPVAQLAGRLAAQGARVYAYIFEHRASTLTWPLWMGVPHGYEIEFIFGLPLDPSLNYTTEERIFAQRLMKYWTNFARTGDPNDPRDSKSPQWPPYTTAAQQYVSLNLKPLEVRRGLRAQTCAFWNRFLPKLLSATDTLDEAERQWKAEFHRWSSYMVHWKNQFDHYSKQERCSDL
Assay: biochemical

For `O=C1c2ccccc2CC1CC1CCN(Cc2ccccc2)CC1` (stereo unspecified), which IC50 is on record?
Its IC50 is 150 nM.
